Assays:
colon cancer PDX models = test: Protein expression in colon cancer patients derived xenograft (PDX) models under chemotherapeutic treatment; assay type: in vivo, mice; settings: colon primary carcinoma (CPC) PDX models, vs untreated control; not statistically significant
Description: (§1) Protein expression was analyzed in NP-40 tissue lysates. Therefore normalized protein amounts were loaded onto 8% or 12.5% polyacrylamide gels in consideration of the molecular mass of the protein of interest. Electrophoresis was performed for 1.5 h at 120 V in SDS Running Buffer with the Mini-vertical electrophoresis unit (Amersham Biosciences). Then separated proteins were transferred to PVDF-membranes (Immobilin-P Transfer Membran; Millipore) using a Semi Dry Blotting Unit (JH BioInnovations) at 160 mA for 1.5 hours. […] Immunoblots were evaluated semi-quantitative using ImageJ (Schneider C A, et al. Nat Meth. 9(2012):671-5) software for densitometric analyses. Relative densities were then calculated by normalizing density values for each protein to the loading control (Actin).
(§2) Samples of patients suffering from colon cancer or GBMs were transplanted into 3 to 6 immunodeficient NOD/SCID mice. The tumor growth was monitored in a daily rhythm. […] During chemosensitivity testing the tumor volume was measured regularly and used to generate growth curves. After a time period of 30-40 days the tumors were excised and analyzed by Immunoblot and Real-Time-PCR. […] Tumor volume of treatment in comparison to control (T/C) was calculated in percent. […]

rectum cancer PDX models = test: Protein expression in rectum cancer PDX models under chemotherapeutic treatment; assay type: in vivo, mice; settings: rectum primary carcinoma (RPC) PDX; not statistically significant
Description: as §1, §2

Substance: Cetuximab: Epidermal growth factor receptor inhibitor
- mTOR protein expression (colon cancer PDX models): trend to be upregulated
- eIF4G protein expression (rectum cancer PDX models): increased
